Assay [1] addresses T1, Glycogen phosphorylase, muscle form (Homo sapiens, UniProt P11217).
T1 sequence (P11217 whole entry): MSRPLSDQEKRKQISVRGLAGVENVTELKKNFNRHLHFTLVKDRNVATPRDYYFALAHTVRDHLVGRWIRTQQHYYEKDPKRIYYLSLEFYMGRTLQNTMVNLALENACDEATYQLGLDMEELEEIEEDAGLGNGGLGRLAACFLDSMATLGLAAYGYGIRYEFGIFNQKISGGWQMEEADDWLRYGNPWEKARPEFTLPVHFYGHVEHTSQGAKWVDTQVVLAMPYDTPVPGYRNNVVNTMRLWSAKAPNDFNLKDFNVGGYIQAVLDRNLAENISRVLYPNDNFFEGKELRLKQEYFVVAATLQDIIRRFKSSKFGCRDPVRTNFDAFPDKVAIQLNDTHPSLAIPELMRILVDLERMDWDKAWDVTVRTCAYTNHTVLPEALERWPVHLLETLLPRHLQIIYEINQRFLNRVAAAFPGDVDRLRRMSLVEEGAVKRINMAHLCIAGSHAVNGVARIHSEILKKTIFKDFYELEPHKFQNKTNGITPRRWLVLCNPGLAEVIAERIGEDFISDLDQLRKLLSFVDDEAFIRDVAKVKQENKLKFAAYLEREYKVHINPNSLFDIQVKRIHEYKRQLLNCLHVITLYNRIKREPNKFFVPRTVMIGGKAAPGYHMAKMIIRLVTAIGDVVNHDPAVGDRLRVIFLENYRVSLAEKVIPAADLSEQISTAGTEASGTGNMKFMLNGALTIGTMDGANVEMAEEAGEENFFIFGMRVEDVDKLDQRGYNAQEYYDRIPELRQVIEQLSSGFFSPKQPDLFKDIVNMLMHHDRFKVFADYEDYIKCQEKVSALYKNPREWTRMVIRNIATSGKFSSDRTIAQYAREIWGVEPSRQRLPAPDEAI
As to the kind of experiment: Inhibitory concentration against recombinant human muscle glycogen phosphorylase a (HMGPa). In kind it is single protein.

Assay [2] has as its target T2, Glycogen phosphorylase, liver form (Homo sapiens, UniProt P06737).
T2 sequence (P06737 whole entry): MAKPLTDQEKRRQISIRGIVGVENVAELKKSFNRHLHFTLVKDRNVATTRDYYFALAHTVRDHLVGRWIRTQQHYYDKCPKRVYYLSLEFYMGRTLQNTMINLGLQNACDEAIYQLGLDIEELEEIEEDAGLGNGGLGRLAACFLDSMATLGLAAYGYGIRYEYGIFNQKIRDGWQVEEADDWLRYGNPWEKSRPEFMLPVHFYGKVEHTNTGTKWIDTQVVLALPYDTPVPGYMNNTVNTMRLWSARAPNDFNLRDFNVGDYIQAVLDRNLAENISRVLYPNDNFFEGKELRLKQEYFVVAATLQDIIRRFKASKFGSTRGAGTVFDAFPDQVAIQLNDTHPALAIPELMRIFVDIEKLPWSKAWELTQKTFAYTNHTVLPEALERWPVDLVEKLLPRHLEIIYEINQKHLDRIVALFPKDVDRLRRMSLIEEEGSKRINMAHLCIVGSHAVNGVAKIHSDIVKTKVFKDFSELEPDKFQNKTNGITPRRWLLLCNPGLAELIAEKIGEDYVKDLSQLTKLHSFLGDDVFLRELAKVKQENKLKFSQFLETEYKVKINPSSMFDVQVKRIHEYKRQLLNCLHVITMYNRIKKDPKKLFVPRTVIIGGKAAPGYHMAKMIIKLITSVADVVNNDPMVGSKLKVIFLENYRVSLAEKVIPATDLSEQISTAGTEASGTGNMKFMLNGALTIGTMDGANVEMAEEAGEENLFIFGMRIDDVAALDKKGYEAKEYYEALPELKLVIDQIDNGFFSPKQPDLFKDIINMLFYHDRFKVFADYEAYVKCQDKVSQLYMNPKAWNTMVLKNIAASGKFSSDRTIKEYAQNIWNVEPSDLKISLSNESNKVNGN
As to the kind of experiment: Inhibitory concentration against recombinant human liver glycogen phosphorylase a (HLGPa).

One may read the IC50 as the concentration that gives 50% inhibition. For the compound `O=C(N[C@@H]1CCc2ccccc2NC1=O)c1cc2cc(Cl)ccc2[nH]1`, the IC50 in assay [1] was 83 nM; in assay [2], 99 nM.

As to `CN1C(=O)C(NC(=O)c2cc3cccc(Cl)c3[nH]2)Cc2ccccc21` (stereo unspecified), in assay [1], the IC50 was found to be 88 nM.

Regarding `O=C(NC1CCc2ccccc2NC1=O)c1cc2cc(Cl)ccc2[nH]1` (stereo unspecified), the figures for the IC50 in assay [1] and in assay [2] were 55 nM and 105 nM, respectively.

In the case of `O=C(N[C@H]1CCc2ccccc2NC1=O)c1cc2cc(Cl)ccc2[nH]1`, the IC50 in assay [1] is 240 nM.

The values above are taken from ChEMBL document CHEMBL1136486, “Novel 3,4-dihydroquinolin-2(1H)-one inhibitors of human glycogen phosphorylase a” (Bioorg Med Chem Lett, 2003).
